These results are taken from patent publication US9266883B2, “Ring-fused bicyclic pyridyl derivatives as FGFR4 inhibitors” (Novartis AG, priority 2013, dated 2016).

By UniProt entry, the sequences of proteins in these tests, tags left out. Residues count along the entry.
UniProt P22455, 388-802: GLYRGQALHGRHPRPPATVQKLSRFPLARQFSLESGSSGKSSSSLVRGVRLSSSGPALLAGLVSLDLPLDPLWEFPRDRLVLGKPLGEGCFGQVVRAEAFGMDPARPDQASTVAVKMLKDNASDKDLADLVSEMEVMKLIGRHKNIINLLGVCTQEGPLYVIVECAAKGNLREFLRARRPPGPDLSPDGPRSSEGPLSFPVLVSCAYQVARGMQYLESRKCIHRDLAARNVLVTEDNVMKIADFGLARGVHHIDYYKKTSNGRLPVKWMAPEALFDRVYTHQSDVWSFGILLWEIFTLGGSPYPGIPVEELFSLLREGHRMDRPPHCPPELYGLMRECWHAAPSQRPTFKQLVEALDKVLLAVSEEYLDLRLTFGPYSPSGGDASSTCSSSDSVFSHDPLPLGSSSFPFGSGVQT

The assay deals with FGFR4 (GST-FGFR4(388-802)) (Homo sapiens (Human), UniProt P22455). The experiment in a line: In-vitro biochemical kinase assay for FGFR4 (Caliper microfluidic mobility shift).
Take `COCCNc1cc(NC(=O)N2CCCc3cc(N4CCC(C)C4=O)c(C=O)nc32)ncc1C#N` (racemic) [Example 261, N-(5-cyano-4-((2-methoxyethyl)amino)pyridin-2-yl)-7-formyl-6-(3-methyl-2-oxopyrrolidin-1-yl)-3,4-dihydro-1,8-naphthyridine-1(2H)-carboxamide]: the IC50 turned out to be 12.5 nM.

In the case of `O=Cc1ccc2c(n1)N(C(=O)Nc1ncc(Cl)c(OC3CCOC3)n1)CCC2` (racemic) [Example 32, N-(5-chloro-4-((tetrahydrofuran-3-yl)oxy)pyrimidin-2-yl)-7-formyl-3,4-dihydro-1,8-naphthyridine-1(2H)-carboxamide], the IC50 is 6.3 nM.

As for `COCCNc1cc(NC(=O)N2CCCc3cc(CN4CCN(C)C(O)C4=O)c(C=O)nc32)ncc1C#N` (racemic) [Example 229, N-(5-cyano-4-((2-methoxyethyl)amino)pyridin-2-yl)-7-formyl-6-((3-hydroxy-4-methyl-2-oxopiperazin-1-yl)methyl)-3,4-dihydro-1,8-naphthyridine-1(2H)-carboxamide], the IC50 worked out at 1.9 nM.
